Apparent affinities of Ab-14 variants for a coronavirus HR2 peptide

Binding partner: SARS-CoV-2 spike HR2 peptide, sequence PDVDLGDISGINAS.

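These sequences belong to a second round, designed from the earlier measurements on random variants of the parent. Several design methods are mixed in this list. AlphaSeq pools MATa yeast showing the antibodies with MATalpha yeast showing the peptide. Pairs that bind mate more often; barcode pairs of the diploids are counted by sequencing. A regression on co-assayed BCL2-family reference pairs converts the normalised counts of each replicate to an apparent Kd. Mating was done six times.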

Ab-14 is the parent antibody, in scFv form: VH, then a 15-residue (Gly4Ser)3 linker, then VL. The heavy chain is unchanged in all variants.
VH: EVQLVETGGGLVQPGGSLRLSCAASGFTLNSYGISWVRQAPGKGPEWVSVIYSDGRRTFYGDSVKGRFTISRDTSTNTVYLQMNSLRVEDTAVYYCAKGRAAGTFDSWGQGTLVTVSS
VL: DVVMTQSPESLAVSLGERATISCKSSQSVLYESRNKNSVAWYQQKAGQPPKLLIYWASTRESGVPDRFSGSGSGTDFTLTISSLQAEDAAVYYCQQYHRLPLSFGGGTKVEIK

The parent's light chain CDRs are KSSQSVLYESRNKNSVA, WASTRES, QQYHRLPLS; each variant's own CDRs replace them letter for letter. Values are apparent Kd, the geometric mean of the replicates that gave a signal; lower means stronger binding. Where no diploid with the target was found in any replicate, the entry reads "no signal": below detection, most likely a poor binder, though not proof of it. A sequence measured in both rounds can read differently, since the two assays cover different ranges. The authors' rule: three or more of the six replicates give a measured affinity, fewer mean a poor binder. As a blank, each scFv also met three strains without target: over all light chain designs, 4% of these pairings were detected, typically at 430 nM and seldom below 38 nM. For each scFv, signals with the empty controls are counted beside the result. Of ten entries with the parent sequence, four were seen in most replicates (averages 2.2 nM to 240 nM), three in one and three in none, so single entries are noisy.

Kd (apparent),detected,empty controls,CDR-L1,CDR-L2,CDR-L3
43 nM,6 of 6,2 of 18,KSPQSVLQESRNKNSVA,WASTRET,QDYHRLPLS
19 nM,2 of 6,0 of 18,SLYEWETVGQDKSNNIA,EDSHLLE,QQYFHLPLK
5.9 nM,6 of 6,2 of 18,QMRVSLSQGIYRQDSVA,STDIRVL,QQYHHLPLS
160 nM,5 of 6,0 of 18,MIAQMLRGVGQNKNSVA,NAQTRES,QHYHRLPLS
270 pM,6 of 6,1 of 18,KVSQSNLYESRNKNSVA,EASQRES,QQYHRLPLS
76 nM,1 of 6,0 of 18,TLMEVGGYQLNSHNSIA,DLRTREN,QQYHRLPLS
140 nM,1 of 6,0 of 18,HSSQSVLYESRWKNSVA,WASTRES,QQYHRLPLS
6.3 nM,6 of 6,3 of 18,KSSQSFLYESRNVNSVA,HASTRES,QQYHRLPLS
3.1 nM,6 of 6,2 of 18,MLTMFPNEPTGDSSNIA,DTNQLNT,QQYQRLPLM
44 nM,5 of 6,0 of 18,KVPQSTLYESRNKNSVA,WASTRES,QQYHRLPLS
1.3 nM,5 of 6,0 of 18,KISQMVRVGSTHMNSIA,EEATRAK,QQYHRLPLA
5.4 nM,6 of 6,1 of 18,KITGMWTFESRNKNNIA,EESTRED,QSYHRLPLS
17 nM,6 of 6,1 of 18,MISQLYNMGTFAINSVA,QASIRNA,QQYDRLPLI
12 nM,6 of 6,0 of 18,RLRELNFESGNARNNIA,DAHIHEV,QQYSWLPLF
740 pM,6 of 6,0 of 18,MLSLNLHDMDRNKNNVA,EMNKKTT,QDYHRLPLA
13 nM,6 of 6,1 of 18,NVGQSMDGELRNKNSVA,HQSTRED,QHYHRLPLS
2.2 nM,6 of 6,0 of 18,KLYQSTLYESRNKNSVA,NASTRLS,QQYHRLPLS
9.8 nM,5 of 6,0 of 18,KISMSYRYESQNKNNIA,EMSRREN,QQYHRLPLS
1.7 nM,6 of 6,1 of 18,KLSQSVLYESRNSNSVA,DASTRES,QDYHRLPLS
760 pM,6 of 6,2 of 18,KVSQLQDYESRNKNSVA,NASQREH,QQYHRLPLS
3.6 nM,6 of 6,3 of 18,IISQVDAYQSRNKNSIA,DQSTRGS,QQYDRLPLS
510 pM,6 of 6,2 of 18,KLSGSVMYESRNKNSVA,EASTRES,QQYHRLPLS
3.9 nM,6 of 6,2 of 18,HVESAWLESNAKKKNVA,NGQGRVE,QQYGRLPLQ
1.6 nM,6 of 6,1 of 18,KLANVTGTEKVKGNNVA,EMETRER,QQYNRLPLS
6.5 nM,6 of 6,0 of 18,KLSQSCLYESRNKNSVA,NASQRES,QQYHRLPLS
3.4 nM,6 of 6,0 of 18,HIQSNMFGFGGVANNVA,QVATKMV,QQYSKLPLM
4.3 nM,6 of 6,1 of 18,SLYEAMQTGGLRTSNIA,DVNQQMR,QHYSRLPLM
4.4 nM,6 of 6,0 of 18,KQSQSELYESRNKNSVA,DASQRED,QDYHRLPLS
960 pM,6 of 6,1 of 18,KFSPSVLYEDRTKNSVA,NASTRES,QQYHRLPLS
3.4 nM,6 of 6,1 of 18,QINHQGLSANLNNRNVA,AKNLRVD,QQYNRLPLS
3.3 nM,6 of 6,0 of 18,KQSQSVLYESRNKNSVA,NASQRES,QQYHRLPLS
2.2 nM,6 of 6,2 of 18,KLSQSVLYGSRNKNSVA,HASTRES,QQYHRLPLS
790 pM,6 of 6,1 of 18,KLMQSMPYESRNANNVA,YASTRES,QQYHRLPLS
870 pM,6 of 6,0 of 18,KQSQSVLYESRNKNSVA,DASTRLS,QQYHRLPLS
45 nM,6 of 6,1 of 18,HLLQTVMYGSTRKNSVA,HAVTREN,QQYHRLPLS
770 pM,6 of 6,1 of 18,KLGGVTEYEMKNKNSVA,QMTTRES,QQYHRLPLS
47 nM,6 of 6,1 of 18,MISQLFNMGQFAINSVA,QASERCN,QQYDRLPLI
1.5 nM,5 of 6,0 of 18,KFQIGFNQGHSMEHNIA,EGTYAEE,QQYARLPLQ
no signal,0 of 6,0 of 18,KFSQSVLYESRTKNSVA,NASTRES,NQYHRLPLS
2.3 nM,6 of 6,2 of 18,KIEQSVLQEDRNKNSVA,NASQRES,QAYHRLPLS
4.4 nM,6 of 6,1 of 18,KLDHYKLGENGMRGSIA,NMTIRDQ,QQYFHLPLF
2.3 nM,6 of 6,0 of 18,KVYGGINFQSSARNSIA,EETMRQD,QQYARLPLS
3.2 nM,6 of 6,2 of 18,KLSQSVLQESRNKNNVA,EASQRES,QQYHRLPLS
24 nM,6 of 6,1 of 18,KSSQSVLYESRNKNSVA,NASTRES,QQYCRLPLS
130 nM,5 of 6,1 of 18,NMLPHMLEDQNIANAIA,EATMVYD,QQYLSLPLS
4.6 nM,6 of 6,0 of 18,KSSQSVLYESRNKNSVA,NASTRVS,QQYHRLPLS
4.0 nM,6 of 6,1 of 18,TISTLMRYESTLKNAIA,NAQTRES,QQYHRLPIS
1.6 nM,6 of 6,0 of 18,KFHQSKLYESRNTNSVA,GASTRES,QQYHRLPLS
2.5 nM,4 of 6,0 of 18,KSSQSVLDESRNKNSVA,WASTRES,QQKHRLPLS
520 pM,6 of 6,1 of 18,KLSQSVMYESRNKNSVA,NASTREQ,QQYHRLPLS
1.4 nM,6 of 6,0 of 18,KLHQSWLYESRNHNSVA,NASQRCS,QQYHRLPLS
3.2 nM,6 of 6,0 of 18,KIGMTLNQLMHKKNNVA,DLVERET,QQYHRLPLS
21 nM,6 of 6,0 of 18,KLQQSVQYESRVKNAVA,QASVRES,QQYHRLPLS
1.2 nM,6 of 6,0 of 18,KAQNSQEYESRMKNSVA,NASQRED,QQYHRLPLS
43 nM,6 of 6,0 of 18,KVSEFMKGLMMRKDSIA,DNTTRGS,QQYDRLPLS

Extract of 5 entries:

{"CDR-L1": "KFQIGFNQGHSMEHNIA", "CDR-L2": "EGTYAEE", "CDR-L3": "QQYARLPLQ", "Kd (apparent)": "1.5 nM", "detected": "5 of 6", "empty controls": "0 of 18"}
{"CDR-L1": "KLSQSVLQESRNKNNVA", "CDR-L2": "EASQRES", "CDR-L3": "QQYHRLPLS", "Kd (apparent)": "3.2 nM", "detected": "6 of 6", "empty controls": "2 of 18"}
{"CDR-L1": "KAQNSQEYESRMKNSVA", "CDR-L2": "NASQRED", "CDR-L3": "QQYHRLPLS", "Kd (apparent)": "1.2 nM", "detected": "6 of 6", "empty controls": "0 of 18"}
{"CDR-L1": "KQSQSELYESRNKNSVA", "CDR-L2": "DASQRED", "CDR-L3": "QDYHRLPLS", "Kd (apparent)": "4.4 nM", "detected": "6 of 6", "empty controls": "0 of 18"}
{"CDR-L1": "KLSQSVLYGSRNKNSVA", "CDR-L2": "HASTRES", "CDR-L3": "QQYHRLPLS", "Kd (apparent)": "2.2 nM", "detected": "6 of 6", "empty controls": "2 of 18"}

Values reported by Li et al. 2023, doi:10.1038/s41467-023-39022-2 (FLAb copy).